# Patent US20260384394A1, “(HETERO)ARYL-CARBONYL-HETEROBICYCLIC COMPOUNDS AS INHIBITORS OF PMS2 FOR CANCER AND DEGENERATIVE ILLNESSES” (published 2026)
# Chains of the proteins cited; added tags and fusions are not shown. Residues count along the entry.
# UniProt P54278, 1-365 limits assumed: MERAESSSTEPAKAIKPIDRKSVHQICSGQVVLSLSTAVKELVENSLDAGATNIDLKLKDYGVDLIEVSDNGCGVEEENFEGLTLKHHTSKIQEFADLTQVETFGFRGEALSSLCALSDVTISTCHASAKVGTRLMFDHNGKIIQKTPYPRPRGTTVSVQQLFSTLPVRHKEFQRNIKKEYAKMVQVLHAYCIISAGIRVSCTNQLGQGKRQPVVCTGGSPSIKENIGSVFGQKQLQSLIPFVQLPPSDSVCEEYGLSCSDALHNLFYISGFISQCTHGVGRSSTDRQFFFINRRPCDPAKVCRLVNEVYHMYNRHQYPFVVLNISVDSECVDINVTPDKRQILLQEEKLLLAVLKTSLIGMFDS
# Molecular target: recombinant N-terminal PMS2 (residues 1-365) (Homo sapiens, UniProt P54278)
# Assay: Fluorescence Polarisation Assay for PMS2 (displacement of fluorescent probe compound)
# Conditions: read-out: PMS2 IC50, 10 nM N-terminal PMS2, 5 nM probe compound, pH 7.5, room temperature, 30 min pre-incubation then 1 hour
# Procedure: Fluorescence Polarisation Assay for PMS2
# Test compounds, as 10 mM DMSO stocks, were dispensed into a Black Fluotrac 200 384 well medium binding plate (Greiner Bio-One, item number 781076) using a Labcyte Echo acoustic liquid handler. For single point screening, test compounds were added to wells in columns 1-22 whilst DMSO was added to wells in columns 23 and 24 in order to normalise the plate. For potency determination, serial dilutions of test compounds were added to wells in columns 3-22 and DMSO volume was normalised across the plate.
# 20 μL of a 2× solution (20 nM) of recombinant N-terminal PMS2 (residues 1-365) in assay buffer (25 mM HEPES, pH 7.5, 250 mM NaCl, 10 mM MgCl2, 0.01% Triton X-100, 5 mM Dithiothreitol) was added to all wells in columns 2-23 for potency determination or columns 1-23 for single point screening. 20 μL assay buffer was added to all wells in columns 1 and 24 (column 24 only for single point screening) using a MultiDrop Combi (ThermoFisher). Plates were centrifuged for 1 minute at 250×g and were incubated at room temperature for 30 minutes prior to the addition of 20 μL of 2×(20 nM) of 5-((5-(4-((2-(2,4-dihydroxy-5-isopropylbenzoyl)isoindolin5-yl)methyl)piperazin-1-yl)pentyl)carbamoyl)-2-(6-(dimethylamino)-3-(dimethyliminio)-3H-xanthen-9-yl)benzoate (referred to hereinafter as “probe compound”) in assay buffer (prepared from a 100 μM DMSO stock) with a MultiDrop Combi (ThermoFisher). The final concentration of N-terminal PMS2 was 10 nM and the final concentration of probe compound was 5 nM.
# Compound plates were centrifuged for 1 minute at 250×g for 1 minute and were incubated at room temperature for 1 hour before being read on a PheraStar FSX (fitted with 384-well aperture spoon and 540 590 590 FP optic module). The gain and focus were adjusted before each plate was read so that the polarisation of a no enzyme control (column 24) was equal to 35 mP. Data were normalised against the no inhibitor controls (column 23) and no enzyme controls (column 24).
row,IC50,Compound
1,> 1 µM,CC(C)c1cc(C(=O)N2CCc3ccc(N(C)C(=O)/C=C/CN(C)C)cc3C2)c(O)cc1F
2,> 1 µM,CN(C)C/C=C/C(=O)N(C)c1cccc2c1CN(C(=O)c1cc(C(C)(C)C)ccc1O)C2
3,< 0.1 µM,C=CC(=O)N(C)c1cccc2c1CN(C(=O)c1c(O)cc(O)c(C)c1C)C2
4,0.1 to 1 µM,C=CC(=O)N(C)c1cc2c(nc1C)CCN(C(=O)c1c(O)cc(OC)c(Cl)c1C)C2
5,> 1 µM,Cc1cc(C(=O)N2Cc3cccc(N(C)C(=O)/C=C/CN(C)C)c3C2)c(O)cc1OC(F)F
6,0.1 to 1 µM,C=CC(=O)Nc1cccc2c1CN(C(=O)c1cc(C)c(O)cc1O)C2
7,0.1 to 1 µM,CN(C)C/C=C/C(=O)N(C)c1cccc2c1CN(C(=O)c1cc(C(F)(F)F)c(O)cc1O)C2
8,0.1 to 1 µM,CN(C)C/C=C/C(=O)N(C)c1cccc2c1CN(C(=O)c1ccc(O)c(C(C)(C)C)c1)C2
9,< 0.1 µM,Cc1cc(C(=O)N2Cc3cccc(NC(=O)/C=C/CN(C)C)c3C2)c(O)cc1O
10,0.1 to 1 µM,CN(C)C/C=C/C(=O)N(C)c1cccc2c1CN(C(=O)c1cc3c(cc1O)NC(=O)C3(C)C)C2
11,> 1 µM,CN(C)C/C=C/C(=O)N(C)c1cccc2c1CN(C(=O)c1cc(C(C)(C)C)c(O)cc1F)C2
12,0.1 to 1 µM,COc1cc(O)c(C(=O)N2Cc3ccc(Cl)c(NC(=O)/C=C/CN(C)C)c3C2)cc1C(C)C
13,< 0.1 µM,CC(C)c1cc(C(=O)N2Cc3cccc(NC(=O)/C=C/CN(C)C)c3C2)c(O)cc1O
14,< 0.1 µM,Cc1cc(O)cc(O)c1C(=O)N1CCc2ccc(N(C)C(=O)/C=C/CN(C)C)cc2C1
15,> 1 µM,CN(C)C/C=C/C(=O)Nc1cccc2c1CN(C(=O)c1cc3cnoc3cc1O)C2
16,< 0.1 µM,C=CC(=O)N(C)c1cccc2c1CN(C(=O)c1c(O)cc(O)c(Cl)c1F)C2
17,0.1 to 1 µM,COc1cc(O)c(C(=O)N2Cc3ccc(C)c(N(C)C(=O)/C=C/CN(C)C)c3C2)cc1C(C)(C)C
18,> 1 µM,CCc1cc(C(=O)N2Cc3cccc(N(C)C(=O)/C=C/CN(C)C)c3C2)c(O)cc1OC
19,0.1 to 1 µM,C=CC(=O)N(C)c1cccc2c1CN(C(=O)c1c(O)cc(OC)c(Cl)c1C)C2
20,0.1 to 1 µM,COc1cc(O)c(C(=O)N2Cc3c(Cl)ccc(N(C)C(=O)/C=C/CN(C)C)c3C2)c(C)c1Cl
21,0.1 to 1 µM,C=CC(=O)N(C)c1ccc2c(c1)CN(C(=O)c1cc(C(C)(C)C)c(OC)cc1O)CC2
22,< 0.1 µM,CCN(C)C/C=C/C(=O)N(C)c1cccc2c1CN(C(=O)c1c(O)cc(O)c(Cl)c1C)C2
23,< 0.1 µM,CCN(C(=O)/C=C/CN(C)C)c1cccc2c1CN(C(=O)c1c(O)cc(O)c(Cl)c1F)C2
24,> 1 µM,C=CC(=O)N(C)c1cccc2c1CN(C(=O)c1cc(CC)c(OC)cc1O)C2
25,< 0.1 µM,COc1cc(O)c(C(=O)N2Cc3cccc(N(C)C(=O)/C=C/CN(C)C)c3C2)c(C)c1Cl
26,0.1 to 1 µM,CC(C)c1cc(C(=O)N2Cc3ccc(Cl)c(NC(=O)/C=C/CN(C)C)c3C2)ccc1O

row,IC50,Compound
1,> 1 µM,C=CC(=O)N(C)c1cccc2c1CN(C(=O)c1cc3c(cc1O)NC(=O)C3(C)C)C2
2,< 0.1 µM,C=CC(=O)N(CCN1CCOCC1)c1cccc2c1CN(C(=O)c1cc(C)c(O)cc1O)C2
3,> 1 µM,COc1cc(O)c(C(=O)N2Cc3cccc(N(C)C(=O)/C=C/CN(C)C)c3C2)cc1Cl
4,> 1 µM,(E)-4-(Dimethylamino)-N-(2-(2-hydroxy-5-methylbenzoyl)isoindolin-4-yl)but-2-enamide
5,0.1 to 1 µM,Cc1c(C(=O)N2Cc3ccc(Cl)c(NC(=O)/C=C/CN(C)C)c3C2)ccc(O)c1Cl
6,< 0.1 µM,CN(C)C/C=C/C(=O)Nc1cccc2c1CN(C(=O)c1c(O)cc(O)cc1C(F)(F)F)C2
7,0.1 to 1 µM,C=CC(=O)N(C)c1cc2c(cc1C)CCN(C(=O)c1cc(C(C)C)c(OC)cc1O)C2
8,< 0.1 µM,C=CC(=O)Nc1cccc2c1CN(C(=O)c1cc(C(C)(C)C)c(O)cc1O)C2
9,> 1 µM,Cc1cc(O)ccc1C(=O)N1Cc2cccc(NC(=O)/C=C/CN(C)C)c2C1
10,< 0.1 µM,C=CC(=O)N(C)c1cccc2c1CN(C(=O)c1cc(C(C)(C)C)c(O)cc1O)C2
11,0.1 to 1 µM,CN(C)C/C=C/C(=O)Nc1cccc2c1CN(C(=O)c1cc3cc[nH]c3cc1O)C2
12,0.1 to 1 µM,C=CC(=O)N(C)c1ccc2c(c1)CN(C(=O)c1c(O)ccc(C(C)(C)C)c1F)CC2
13,< 0.1 µM,CN(C)C/C=C/C(=O)N(C)c1cccc2c1CN(C(=O)c1cc(C(C)(C)C)c(O)cc1O)C2
14,> 1 µM,CC#CC(=O)N(C)c1cc2c(cc1OCCN(C)C)CCN(C(=O)c1cc(C(C)C)c(OC)cc1O)C2
15,0.1 to 1 µM,COc1cc(O)c(C(=O)N2CCc3ccc(N(C)C(=O)/C=C/CN(C)C)cc3C2)cc1C(C)(C)C
16,0.1 to 1 µM,"(E)-N-(2-(2,4-Dihydroxybenzoyl) isoindolin-4-yl)-4-(diethylamino)-N-((1-methyl-1H-pyrazol-4-yl)methyl)but-2-enamide"
17,< 0.1 µM,CC(C)c1cc(C(=O)N2CCc3ccc(N(C)C(=O)/C=C/CN(C)C)cc3C2)c(O)cc1O
18,< 0.1 µM,C=CC(=O)N(C)c1ccc2c(c1)CN(C(=O)c1cc(C)c(O)cc1O)CC2
19,0.1 to 1 µM,C=CC(=O)N(C)c1ccc2c(c1)CN(C(=O)c1cc(C(C)C)c(OC)cc1O)CC2
20,< 0.1 µM,Cc1c(O)cc(O)c(C(=O)N2Cc3c(Cl)ccc(N(C)C(=O)/C=C/CN(C)C)c3C2)c1C
21,< 0.1 µM,Cc1cc(O)cc(O)c1C(=O)N1Cc2cccc(N(C)C(=O)/C=C/CN(C)C)c2C1
22,0.1 to 1 µM,C=CC(=O)N(C)c1cc2c(cn1)CCN(C(=O)c1cc(C(C)C)c(OC)cc1O)C2
23,< 0.1 µM,Cc1cc(C(=O)N2Cc3cccc(N(C)C(=O)/C=C/CN(C)C)c3C2)c(O)cc1O
24,> 1 µM,C/C=C/C(=O)N(C)c1ccc2c(n1)CN(C(=O)c1c(O)cc(OC)c(Cl)c1C)CC2
25,> 1 µM,Cc1cc(C(=O)N2Cc3cccc(N(C)C(=O)/C=C/CN(C)C)c3C2)ccc1O
26,0.1 to 1 µM,Cc1c(Cl)c(OC(F)F)cc(O)c1C(=O)N1Cc2cccc(N(C)C(=O)/C=C/CN(C)C)c2C1

row,IC50,Compound
1,< 0.1 µM,CN(C)C/C=C/C(=O)N(CCc1ccccc1)c1cccc2c1CN(C(=O)c1ccc(O)cc1O)C2
2,< 0.1 µM,C=CC(=O)N(C)c1cc2c(cc1OCCN(C)C)CCN(C(=O)c1cc(C(C)C)c(OC)cc1O)C2
3,< 0.1 µM,Cc1cc(C(=O)N2Cc3cccc(N(Cc4ccncc4)C(=O)/C=C/CN(C)C)c3C2)c(O)cc1O
4,< 0.1 µM,Cc1c(O)cc(O)c(C(=O)N2CCc3ccc(N(C)C(=O)/C=C/CN(C)C)cc3C2)c1C
5,> 1 µM,CC(C)c1cc(C(=O)N2Cc3cccc(N(C)C(=O)/C=C/CN(C)C)c3C2)c(O)cc1F
6,> 1 µM,CN(C)C/C=C/C(=O)N(C)c1cccc2c1CN(C(=O)c1c(O)c(CO)cc(C(C)(C)C)c1F)C2
7,0.1 to 1 µM,COc1cc(O)c(C(=O)N2Cc3ccc(C)c(N(C)C(=O)/C=C/CN(C)C)c3C2)cc1C(C)C
8,< 0.1 µM,C=CC(=O)N(C)c1ccc2c(c1)CN(C(=O)c1c(O)cc(O)c(Cl)c1C)CC2
9,0.1 to 1 µM,CN(C)C/C=C/C(=O)Nc1cccc2c1CN(C(=O)c1cc(C#N)c(O)cc1O)C2
10,> 1 µM,CC#CC(=O)N(C)c1cc2c(cc1OCCN(C)C)CCN(C(=O)c1c(O)cc(OC)c(Cl)c1C)C2
11,> 1 µM,CN(C)C/C=C/C(=O)Nc1cccc2c1CN(C(=O)c1ccc(C(F)F)cc1O)C2
12,< 0.1 µM,CN(C)C/C=C/C(=O)Nc1cccc2c1CN(C(=O)c1cc(Br)c(O)cc1O)C2
13,> 1 µM,C=CC(=O)N(C)c1ccc2c(c1C)CN(C(=O)c1cc(C(C)C)c(OC)cc1O)CC2
14,< 0.1 µM,CCN(C(=O)/C=C/CN(C)C)c1cccc2c1CN(C(=O)c1c(O)cc(O)c(Cl)c1C)C2
15,< 0.1 µM,CN(C)C/C=C/C(=O)N(C)c1cccc2c1CN(C(=O)c1c(O)cc(O)c(Cl)c1F)C2
16,< 0.1 µM,Cc1cc(C(=O)N2Cc3c(Cl)ccc(N(C)C(=O)/C=C/CN(C)C)c3C2)c(O)cc1O
17,> 1 µM,COc1cc(O)c(C(=O)N2CCc3ncc(N(C)C(=O)/C=C/CN(C)C)cc3C2)cc1C(C)C
18,< 0.1 µM,Cc1c(O)cc(O)c(C(=O)N2Cc3ccc(Cl)c(N(C)C(=O)/C=C/CN(C)C)c3C2)c1C
19,< 0.1 µM,CCN(C(=O)/C=C/CN(C)C)c1cccc2c1CN(C(=O)c1cc(C)c(O)cc1O)C2
20,0.1 to 1 µM,C=CC(=O)N(C)c1ccc2c(c1)CN(C(=O)c1cc3c(cc1O)NC(=O)C3(C)C)CC2
21,> 1 µM,C=CC(=O)N(C)c1cccc2c1CN(C(=O)c1cc(Cl)c(OC)cc1O)C2
22,0.1 to 1 µM,COc1cc(O)c(C(=O)N2Cc3ccc(Cl)c(N(C)C(=O)/C=C/CN(C)C)c3C2)cc1Cl
23,> 1 µM,CN(C)C/C=C/C(=O)N(C)c1ccc2c(c1)CN(C(=O)c1cc(C(C)(C)C)ccc1O)CC2
24,0.1 to 1 µM,CN(C)C/C=C/C(=O)Nc1cccc2c1CN(C(=O)c1ccc(O)cc1O)C2 [Example 17]
25,0.1 to 1 µM,C=CC(=O)N(C)c1cccc2c1CN(C(=O)c1c(C)cc(O)cc1O)C2
26,0.1 to 1 µM,Cc1[nH]c2cc(O)c(C(=O)N3Cc4cccc(N(C)C(=O)/C=C/CN(C)C)c4C3)cc2c1C
